Consider one substance from publication PMC3271085.

The chains behind the UniProt entries cited, without tags or fusion partners. Residues count along the entry.
UniProt P13290, 23-699: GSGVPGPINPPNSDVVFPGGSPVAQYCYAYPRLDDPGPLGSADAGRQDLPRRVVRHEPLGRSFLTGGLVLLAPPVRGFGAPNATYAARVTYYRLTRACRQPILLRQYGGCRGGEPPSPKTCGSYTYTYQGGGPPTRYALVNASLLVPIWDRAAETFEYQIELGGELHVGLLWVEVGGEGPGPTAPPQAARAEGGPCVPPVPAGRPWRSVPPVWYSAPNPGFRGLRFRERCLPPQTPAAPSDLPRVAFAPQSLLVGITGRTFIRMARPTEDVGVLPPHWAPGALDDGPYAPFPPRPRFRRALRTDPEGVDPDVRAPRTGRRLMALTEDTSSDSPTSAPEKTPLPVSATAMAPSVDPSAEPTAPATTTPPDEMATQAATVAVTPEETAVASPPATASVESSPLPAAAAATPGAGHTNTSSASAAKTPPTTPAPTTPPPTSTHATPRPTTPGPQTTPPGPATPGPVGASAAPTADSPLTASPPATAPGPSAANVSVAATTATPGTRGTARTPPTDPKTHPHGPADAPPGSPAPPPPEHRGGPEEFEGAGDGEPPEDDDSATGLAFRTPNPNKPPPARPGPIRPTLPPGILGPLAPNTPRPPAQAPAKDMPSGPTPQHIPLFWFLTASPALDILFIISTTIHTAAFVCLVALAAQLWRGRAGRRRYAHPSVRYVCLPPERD
UniProt P48061, 22-89: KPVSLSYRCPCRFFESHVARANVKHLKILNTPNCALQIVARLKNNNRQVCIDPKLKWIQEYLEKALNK

pKd: −log10 of the molar value.

This test deals with soluble, secreted form of HSV-2 glycoprotein G (SgG2) (herpes simplex virus type 2) (UniProt P13290). The test can be described thus: SPR; Biacore X; SgG1 or SgG2 amine-coupled to CM5 chips (dialysed against acetate buffer pH 5.0 for SgG1, pH 5.5 for SgG2); chemokines injected; screening at 100 nM and kinetic conditions as in ref. 16; Biaevaluation 3.2.

“human CXCL12α (from UniProt P48061-2 22-89) (ligand)”: the pKd (usually the negative decadic logarithm of the Kd, by convention in mol/L) is 8.19.
